Hits are enriched below; roughly 1.8% of the tested compounds scored in any of these assays.
Cneo AK release: Cryptococcus neoformans cell lysis inducers, primary screen, AK release luminescence, single concentration; C. neoformans lysis, adenylate kinase release luminescence, 4 h; normalised: neutral wells 0, clomiphene wells 100; lysis activity, % at 15 µM; 0.2% of 360,000 active; AID 651654, 2012;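 active means mean lysis activity across replicates of at least 80%, whatever share of replicates individually reach that level; inactive means mean lysis activity below 80%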
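Material – log-phase Cryptococcus neoformans yeast cells · Input – 5 × 10^6 yeast cells/mL · Medium – fresh YPD growth medium · Doses – single compound concentration per well · Timing – static 4 h at 37 °C with compound, 1 h detection · Detection – adenylate kinase release luminescence · Read-out – signal increase indicating cell lysis · Control set – Clomiphene as positive lysis control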
UUG fidelity: modulators of yeast start codon fidelity, primary screen, whole organism, S. cerevisiae, single point, plate reader. S. cerevisiae UUG-firefly luciferase reporter, luminescence/redox ratio. activity score, % at 18.7 µM. hit rate 0.13% among 350,000;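 active = replicate mean at a twofold rise or more, about +100% in these data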;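 also: firefly luciferase made from a UUG start codon reports start codon fidelity; reporter light over untreated wells divided by growth signal over untreated wells; some hits fall short of that in this replicate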
E-sel inducer: E-selectin induction in HUVECs, primary screen, imaging, HUVEC, immunofluorescence imaging, single point; P16581; normalized: neutral wells 0, TNF-alpha wells 100; activation, % at 7.58 µM; 0.37% of 260,000 active;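 active means mean E-selectin-positive cell signal at least 10% of the positive control, reached in at least 60% of replicates, without over 20% cell loss; inconclusive means no rule given, readout overlaps actives, possibly toxicity-flagged; inactive means the rest, including those meeting only one limit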
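Assay system: HUVEC primary endothelial cells. Input: 3,000 HUVEC seeded per well. Doses: one compound dose added by pin transfer. Read-out basis: % PE-positive cells. Benchmarks: TNF-alpha high, DMSO low. Detection: immunofluorescence imaging. Buffer or medium: EGM-2, gelatin.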
DENV2 CPE rescue: inhibitors of DENV2 cytopathic effect, primary screen, cell-based, plate reader, single concentration; DENV2-infected cells, cytopathic effect rescue; CPE inhibition, % at 9.99 µM; 1.7% of 350,000 active; AID 651640, 2012; in the data active means CPE inhibition above about 20%, passing the limit was not always enough; inconclusive means no clear call, values can overlap the other calls; tested in BHK-21 cells;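 further: 0% = median of neutral control wells and 100% = median of positive control wells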
An asterisk follows results filed as active; ? = inconclusive; / = no result; ! = not confirmed by another sample.

Sequence of screens – Cneo AK release, UUG fidelity, E-sel inducer, DENV2 CPE rescue
CO[C@H]1CC[C@H]2CCOc3c(C#N)cccc3C(=O)N(C)C[C@@H](C)C(=O)N(C)C[C@H]1O2
 : 88*, /, 0, 2
COc1ccc(NC(=O)N(C)C[C@@H]2Oc3ccc(NC(=O)Cn4cnnn4)cc3C(=O)N([C@H](C)CO)C[C@H]2C)cc1
 : 0, -12, -4, -2
C[C@H]1CN([C@@H](C)CO)C(=O)c2cccc(NC(=O)C3CCOCC3)c2O[C@H]1CN(C)C(=O)Nc1ccc(C(F)(F)F)cc1
 : -1, -12, 0, 12
CN(C)CCCNC(=O)C[C@@H]1CC[C@@H](NC(=O)c2ccccc2F)[C@H](CO)O1
 : -1, -7, 0, -6
O=C(C[C@H]1CC[C@H]2[C@@H](COC[C@@H](O)CN2C(=O)c2ccc3c(c2)OCO3)O1)NCCN1CCCC1
 : /, /, 0, 27*
O=C(C[C@H]1CC[C@@H]2[C@H](COC[C@H](O)CN2C(=O)c2ccc3c(c2)OCO3)O1)NC1Cc2ccccc2C1
 : -3, -1, 0, 24*
O=C(C[C@@H]1CC[C@H]2[C@@H](COC[C@H](O)CN2C(=O)Nc2ccc(F)cc2)O1)NC1Cc2ccccc2C1
 : -2, 53, 0, 25*
O=C(C[C@H]1CC[C@H]2[C@@H](COC[C@@H](O)CN2C(=O)c2ccc3c(c2)OCO3)O1)NC1CCC1
 : -3, /, 0, -6
COc1ccc(CN(C)C[C@H]2Oc3ccc(NC(=O)c4ccncc4)cc3C(=O)N([C@@H](C)CO)C[C@@H]2C)cc1
 : -1, -4, 11, -4
COc1ccc(NC(=O)Nc2ccc3c(c2)C(=O)N([C@H](C)CO)C[C@@H](C)[C@@H](CN(C)Cc2ccncc2)O3)cc1
 : -1, -9, 5, 6
COc1ccc(NC(=O)Nc2ccc3c(c2)C(=O)N([C@H](C)CO)C[C@H](C)[C@H](CN(C)Cc2ccccc2)O3)cc1
 : 3, -3, 0, -7
C[C@@H]1CN([C@@H](C)CO)C(=O)c2cc(NC(=O)Nc3ccc(F)cc3)ccc2O[C@H]1CN(C)Cc1ccncc1
 : -13, -13, 4, -1
COc1ccc(NC(=O)Nc2ccc3c(c2)C(=O)N([C@H](C)CO)C[C@H](C)[C@@H](CN(C)Cc2ccncc2)O3)cc1
 : -1, -10, 170*, 6
COc1ccc(NC(=O)Nc2ccc3c(c2)C(=O)N([C@H](C)CO)C[C@H](C)[C@@H](CN(C)Cc2ccccc2)O3)cc1
 : 4, -26, 0, 43*
C[C@@H]1CN([C@H](C)CO)C(=O)c2cc(NC(=O)Nc3ccc(F)cc3)ccc2O[C@H]1CN(C)Cc1ccncc1
 : 45, 1, -3, 37*
COc1ccc(CN(C)C[C@@H]2Oc3ccc(NC(=O)c4ccncc4)cc3C(=O)N([C@@H](C)CO)C[C@H]2C)cc1
 : -1, -13, 56*, 0
CC(C)NC(=O)N[C@H]1CC[C@@H](CCNC(=O)C2CCOCC2)O[C@@H]1CO
 : -1, -14, 0, 3
CNC[C@H]1Oc2ccc(NS(=O)(=O)c3ccc(OC)cc3)cc2CC(=O)N([C@H](C)CO)C[C@@H]1C
 : /, /, 1, /
C[C@H]1CN([C@@H](C)CO)C(=O)Cc2cc(NC(=O)NC3CCCCC3)ccc2O[C@@H]1CN(C)Cc1ccc(C(F)(F)F)cc1
 : 0, 3, 0, -2
C[C@H]1CN([C@@H](C)CO)C(=O)c2cc(NC(=O)c3ccncc3)ccc2O[C@H]1CN(C)Cc1ccc(C(=O)O)cc1
 : -7, -5, 0, 42*!
CC1=CC(C)(C)n2c(O)c(N=N)c3c(C)c(C)cc1c32
 : /, /, /, -11
CC1=CC(C)(C)n2c(O)c(N=N)c3cc(C)cc1c32
 : 0, 13, -1, 49*
CC(NC(=O)CCc1ccccc1)c1ccc2c(c1)OCO2 (centres undefined)
 : -2, -16, -1, 29*
CCNC(=O)C[C@@H]1CC[C@H]2[C@@H](COc3ccc(NC(=O)c4ccc(F)c(F)c4)cc3C(=O)N2C)O1
 : -1, -2, 0, -3
CNC(=O)C[C@@H]1CC[C@@H]2[C@H](COc3ccc(NC(=O)c4ccc(F)c(F)c4)cc3C(=O)N2C)O1
 : 17, -1, 0, 97*
CNC(=O)C[C@H]1CC[C@H]2[C@H](COc3ccc(NC(=O)c4ccc(F)c(F)c4)cc3C(=O)N2C)O1
 : 22, 4, 0, ?
CNC(=O)C[C@H]1CC[C@@H]2[C@H](COc3ccc(NC(=O)c4ccc(F)c(F)c4)cc3C(=O)N2C)O1
 : -6, 5, 0, 95*
O=C(Cc1cccnc1)N1CC(=O)N2[C@H](CO)[C@@H](c3ccc(C#CC4CC4)cc3)[C@H]2C1
 : /, /, 0, 0
COc1cccc(-c2ccc3c(c2)[C@@H]2[C@@H](CCN2C(=O)c2cccc(F)c2)[C@@H](CO)N3)c1
 : -5, -27, ?, 28*
COc1ccc(-c2ccc3c(c2)[C@H]2[C@H](CCN2C(=O)c2cccc(F)c2)[C@H](CO)N3)cc1
 : -8, -7, 0, -17

Continued, starting with the last 5 of the part before.
Sequence of screens – Cneo AK release, UUG fidelity, E-sel inducer, DENV2 CPE rescue
CNC(=O)C[C@H]1CC[C@H]2[C@H](COc3ccc(NC(=O)c4ccc(F)c(F)c4)cc3C(=O)N2C)O1
 : 22, 4, 0, ?
CNC(=O)C[C@H]1CC[C@@H]2[C@H](COc3ccc(NC(=O)c4ccc(F)c(F)c4)cc3C(=O)N2C)O1
 : -6, 5, 0, 95*
O=C(Cc1cccnc1)N1CC(=O)N2[C@H](CO)[C@@H](c3ccc(C#CC4CC4)cc3)[C@H]2C1
 : /, /, 0, 0
COc1cccc(-c2ccc3c(c2)[C@@H]2[C@@H](CCN2C(=O)c2cccc(F)c2)[C@@H](CO)N3)c1
 : -5, -27, ?, 28*
COc1ccc(-c2ccc3c(c2)[C@H]2[C@H](CCN2C(=O)c2cccc(F)c2)[C@H](CO)N3)cc1
 : -8, -7, 0, -17
O=C(c1cccc(F)c1)N1CC[C@@H]2[C@H]1c1cc(-c3ccccc3)ccc1N[C@@H]2CO
 : /, /, 1, 46*
COc1ccc(Br)c2oc(SC)cc(=O)c12
 : -2, 0, 0, 82*
CN(C)C(=O)c1ccc(-c2ccc([C@@H]3[C@H]4CN(C(=O)C5CCC5)CCCCN4[C@H]3CO)cc2)cc1
 : -1, 0, /, 1
Cc1ccc2c(c1)c1c(n2CC(O)CNC2CCCC2)CCCC1 (centres undefined)
 : -4, 4, /, 27*
O=C1NC[C@@H](CCCCN2CCN(Cc3ccccc3)C(=O)C2=O)N(CCC2CCCCC2)C1=O
 : /, /, /, 21*
O=C1NC[C@@H](CCCCN2C[C@H](Cc3ccc(O)cc3)N(CC3CCCCC3)C(=O)C2=O)N(CCC2CCCCC2)C1=O
 : /, /, /, 59*
O=C1NC[C@@H](CCCCN2CCN(Cc3ccccc3)C(=O)C2=O)N(CC2CCCCC2)C1=O
 : /, /, /, -6
O=C1NC[C@H](CCCCN2C[C@H](Cc3ccc(O)cc3)N(CCC3CCCCC3)C(=O)C2=O)N(CC2CCCCC2)C1=O
 : /, /, -1, 7
O=C(C[C@@H]1C[C@@H]2c3cc(NC(=O)NC4CCCC4)ccc3O[C@@H]2[C@H](CO)O1)NCc1ccc2c(c1)OCO2
 : 2, 10, 1, 0
COc1ccc2c3c(n(C)c2c1)[C@@H](CO)N(C(=O)Nc1ccc(F)cc1)CC31CCN(C(=O)c2ccccc2F)CC1
 : /, /, 0, 40*
COc1ccc2c3c(n(C)c2c1)[C@H](CO)N(C(=O)c1cccc(F)c1)CC31CN(C(=O)c2cccc(F)c2)C1
 : /, /, 0, 46*
COc1ccc2c3c(n(C)c2c1)[C@H](CO)N(C(=O)C1CCCC1)CC31CCN(C(=O)Nc2cccc(F)c2)CC1
 : /, /, 0, 28*
CCC(=O)N1CC2(C1)CN(C(=O)Nc1ccc(F)cc1)[C@H](CO)c1c2c2ccc(OC)cc2n1C
 : /, /, 0, 80*
